A word on the Ki: it is a measure of affinity in units of concentration, obtained from inhibition or displacement. High values mean lower affinity, low ones higher affinity.

Chains of the proteins cited; added tags and fusions are not shown.
UniProt P14842, whole entry: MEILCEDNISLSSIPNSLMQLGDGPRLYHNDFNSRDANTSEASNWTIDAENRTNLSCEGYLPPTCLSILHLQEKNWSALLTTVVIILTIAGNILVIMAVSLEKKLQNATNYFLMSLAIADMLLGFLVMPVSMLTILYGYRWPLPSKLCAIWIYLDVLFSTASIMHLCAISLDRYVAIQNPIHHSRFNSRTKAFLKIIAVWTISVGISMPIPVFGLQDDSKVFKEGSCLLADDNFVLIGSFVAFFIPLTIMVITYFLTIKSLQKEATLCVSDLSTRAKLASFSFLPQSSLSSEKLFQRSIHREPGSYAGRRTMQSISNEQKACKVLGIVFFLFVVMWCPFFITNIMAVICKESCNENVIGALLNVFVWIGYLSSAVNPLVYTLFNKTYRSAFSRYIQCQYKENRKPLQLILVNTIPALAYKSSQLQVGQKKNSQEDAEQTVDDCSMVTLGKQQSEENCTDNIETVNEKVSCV

The test has as its target 5-hydroxytryptamine receptor 2A (Rattus norvegicus, UniProt P14842).

For `CNCCC=C1c2ccccc2CCc2ccccc21` [NORTRIPTYLINE], the Ki stood at 5 nM.

The values above are taken from BindingDB's records for doi:10.1007/bf02246453 (University of Turku, 1996).
